Source: patent publication US20240008524A1, “CONSUMABLE” (Nicoventures Trading Limited, priority 2020, published 2024)

Assay: Water solubility of flavoring agents and their flavor glucosides
Settings: flavoring agent in the form of its flavor glucoside

| Glucoside water solubility | Substance |
| --- | --- |
| 2680 µg/mL | 5-methyl-2-(1-methylethyl)phenyl-O-β-D-glucopyranoside [Thymol glucoside] |
| 16400 µg/mL | endo-(1S)-1,7,7-trimethylbicyclo[2.2.1]heptan-2-yl-O-β-D-glucopyranoside [Borneol glucoside] |
